The source of these data is US20210145834A1, “COMBINATION OF POZIOTINIB WITH CYTOTOXIC AGENT AND/OR OTHER MOLECULARLY TARGETED AGENT AND USE THEREOF” (Spectrum Pharmaceuticals, Inc., priority 2018, published 2021).

Assay type in all cases: cell-based
Experiment [1] has as its system BT-474 cells. Kind of experiment: Cell growth inhibition assay (sulforhodamine B), single agents and combinations. Conditions: BT-474, single agent, 3 days. The method, then: (§1) The effect of the inventive compositions on the cancer cell growth inhibition was conducted in EGFR-overexpressed or -mutated cancer cell lines.
(§2) All cells except for H1975 were cultured for 72 hours prior to cell plating. Cells were seeded in a 96-well plate at 4 to 15×10^3 cells/well. Approximately 24 hours after plating, cells were exposed to ten, two-fold or three fold serial dilutions of test individual compounds or the combination of the two test compounds at a constant molar to molar ratio or non-constant ratio of two agents. Cells were incubated in the presence of compounds for 3 days except for H1975, which was for 2 days at 3×10^3 cells/well.
(§3) Cell growth inhibition based on measurement of cellular protein content is determined by sulforhodamine B colorimetric assay according to the “Nat Protoc. […] The absorbance was read on a SpectraMax™ plate reader at 540 nm. For H1975 cells, cell growth (%) is determined by adding CellTiter™ 96 Aqueous One Solution Cell Proliferation Assay reagent (Promega) according to the manufacturer's protocol.
(§4) Inhibition of cell growth was estimated after treatment with test agent or combination of test agents for incubating time (2-3 days) and comparing the signal to cells treated with vehicle (DMSO). Cell growth (%) was calculated by following equations.
(§5) Percentage growth inhibition was calculated using:
a. […]
(§6) Each T value means an absorbance. […]

For experiment [2], the system named is N87 cells. The experiment is described as above. The conditions noted are these: N87, single agent, 3 days. The method, then:
as §1, §2, §3, §4
Percentage growth inhibition was calculated using: […]
as §6

Experiment [3] has as its system H1975 cells. The experiment can be described thus: Cell growth inhibition assay (CellTiter 96 Aqueous One), single agents and combinations. The conditions noted are these: H1975, single agent, 2 days. As for the experimental part: as §1, §2, §3, §4, §5
a. […]
as §6

Trastuzumab: the GI50 (as a rule, the concentration giving 50% growth inhibition) was 0.082 µM in experiment [1] and over 10 µM in experiment [2]. With Cetuximab, the GI50 in experiment [3] is over 10 µM.
